The values that follow come from US20200206312A1.

Protein sequences, listed by entry. Tags and fused reporters are not part of them. Chains listed by the source or under a name are the forms on record and can include a tag or linker.
Recombinant human NRP1 with His Tag (Sino Biological Inc.; Cat #1001-H08H) (human), O14786, UniProt O14786, other isoform, or with tags, fused parts or gaps H08H H08H limits assumed: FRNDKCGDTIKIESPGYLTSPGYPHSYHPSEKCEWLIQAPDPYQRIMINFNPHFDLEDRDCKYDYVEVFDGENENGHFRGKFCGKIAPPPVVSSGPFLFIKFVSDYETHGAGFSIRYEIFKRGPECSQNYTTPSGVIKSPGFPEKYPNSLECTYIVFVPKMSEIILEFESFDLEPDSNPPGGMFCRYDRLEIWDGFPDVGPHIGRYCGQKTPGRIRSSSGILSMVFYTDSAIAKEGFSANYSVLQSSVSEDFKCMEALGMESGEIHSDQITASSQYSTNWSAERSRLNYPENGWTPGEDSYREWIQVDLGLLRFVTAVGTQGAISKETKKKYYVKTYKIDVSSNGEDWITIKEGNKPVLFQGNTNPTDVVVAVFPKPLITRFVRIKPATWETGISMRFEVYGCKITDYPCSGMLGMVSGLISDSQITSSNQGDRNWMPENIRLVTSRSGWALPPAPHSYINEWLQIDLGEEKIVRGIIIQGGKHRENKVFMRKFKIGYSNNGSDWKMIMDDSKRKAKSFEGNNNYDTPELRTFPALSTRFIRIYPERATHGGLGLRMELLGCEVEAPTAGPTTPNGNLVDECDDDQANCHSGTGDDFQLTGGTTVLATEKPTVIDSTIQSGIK

This assay deals with Recombinant human NRP1 with His Tag (Sino Biological Inc.; Cat #1001-H08H) (human), O14786. Briefly: BLI (Octet Red96), biotinylated peptide on streptavidin sensor, NRP1 in solution. On the technique in general: In BLI a coated tip is dipped into the sample, and binding shifts an interference pattern.

For orientation: Kd means the constant that tells how readily two partners part at equilibrium.

For the molecule MCMPCFTTDHQMAR (modifications not checked) [NH2(Biotin)-M-C(Capped)-M-P-C(Capped)-[…]OOH], the Kd came out at 169 nM.
